# Reference: patent publication US20100204146A1, “Treatment of Oestrogen Dependant Conditions in Pre-menopausal Women” (PregLem S.A., priority 2007, published 2010)
# Test system: female Cynomolgus monkeys (Macaca fascicularis)
# Assay: 39-week intragastric study in female Cynomolgus monkeys: impact on ovarian cycle and function, microscopic status at necropsy
smiles,measurement,setting,value
"C[C@]12CC[C@@H]3c4ccc(OS(N)(=O)=O)cc4CC[C@H]3[C@@H]1CC[C@@H]2O [E2MATE, Estradiol sulfamate]",compound-related prolongation of the menstrual cycle length (animals),"0.2 mg/kg daily, treatment period",6/8
same,frequency and incidence of blood stained vaginal discharge,"from 0.2 mg/kg/day onwards, approx. 39 weeks",decreased
